# Data: patent US20100130432A1, “Non-Natural Amino Acids and Neurotensin Analogues Thereof” (priority 2005, published 2010)
# Protein sequences, listed by entry. Tags and fused reporters are not part of them.
# UniProt O95665, whole entry, species assumed: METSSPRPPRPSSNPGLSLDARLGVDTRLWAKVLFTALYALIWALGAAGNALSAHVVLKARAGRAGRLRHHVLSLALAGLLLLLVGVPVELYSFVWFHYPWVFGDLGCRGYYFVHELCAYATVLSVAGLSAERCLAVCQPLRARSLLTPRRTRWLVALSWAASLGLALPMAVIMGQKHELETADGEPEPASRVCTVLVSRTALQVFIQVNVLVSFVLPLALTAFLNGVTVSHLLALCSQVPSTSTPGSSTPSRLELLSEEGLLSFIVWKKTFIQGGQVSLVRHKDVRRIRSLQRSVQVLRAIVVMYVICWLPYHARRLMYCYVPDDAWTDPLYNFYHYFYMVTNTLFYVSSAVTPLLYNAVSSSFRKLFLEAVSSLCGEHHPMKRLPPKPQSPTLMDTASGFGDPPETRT
# Non-standard residues stand in square brackets, D forms with d. Residues, ends and D or L forms follow the SMILES beside them. *: point of attachment. X5 = [N-]=[N+]=N[C@@H](CCCCCN)C(=O)*; Tle = CC(C)(C)[C@H](N)C(=O)O; X1 = C[C@@H](CCCCCN)C(=O)*
# Tests used:
# [1] = Pharmacokinetics of ABS201 in blood/plasma (LC/MS/MS)
# Source text: At selected time points, blood was removed or brain harvested and the concentration of the peptide analog determined using LC/MS/MS.
# These samples were then used for the determination of plasma and brain drug levels by LC/MS/MS for estimating BBB penetration and pharmacokinetic parameters.
# [2] = tested on: rats; experiment: d-Amphetamine induced hyperlocomotion / locomotor activity chambers; type: in vivo, rat; conditions: administered orally
# Source text: Sound- and light-attenuated locomotor cages are used to measure the ability of potential candidates to decrease d-amphetamine-induced hyperactivity.
# d-Amphetamine induced hyperlocomotion. Experimentally I male Sprague-Dawley rats were housed as described above. Rats were handled for three days prior to testing to minimize experimenter induced hyperlocomotion on test day. For experiments, sound- and light-attenuated automated photocell beam activity chambers (AccuScan Instruments, Inc., Columbus, Ohio) were used to measure locomotion. Cages were connected to a VersaMax Analyzer (AccuScan) in conjunction with an IBM computer using VersaMax 1.80-0146 software (AccuScan) to record vertical and horizontal activity. Total activity values recorded were the sum of vertical and horizontal activity. […]
# Rats were placed in the activity chambers for 30 minutes to habituate and establish baseline activity levels. Then, rats were removed and given an IP or oral dose of peptide (N=7) or saline (N=8) and returned to the chamber to establish the peptide's effect on spontaneous activity levels. About 30 minutes after administration, rats were removed and given an IP injection of d-amphetamine (1 mg/kg) or vehicle and returned to the chamber for a further 1 hr to assess the effect of the peptide on induced hyperlocomotion.
# Chronic Testing Protocols. […]
# [3] = 100 μg/mL in whole rat blood
# [4] = intra-stomach, -duodenum, -jejunum, -colon
# Description: These samples were used for the determination of plasma drug by LC/MS/MS for estimating pharmacokinetic parameters and segmental absorption. The bioavailability of intra-stomach, intra-duodenum, intra-jejunum, intra-colon administration relative to intravenous administration and gavage was calculated.
# [5] = tested on: rats; experiment: Hotplate assay; type: in vivo, rat; conditions: gavage 20 mg/kg
# Source text: Animals. Experimentally naïve male Sprague-Dawley rats from Charles River Laboratories, Raleigh, N.C. (230-260 g) or Harlan, Prattville Ala. (240-280 g), were maintained 4 per cage in animal quarters on a regular light/dark cycle (lights on 0600-1800) with ad libitum food and water for approximately 1 week before the experiment. The range of body weights on the 2 days of testing was 230-260 grams. The experiment was done on one day, with animals allowed to recover for three days before experiments are repeated.
# Peptide Preparation. Test articles are prepared at the desired concentration in saline for either IP injection or gavage administration with N=6 for each dose and vehicle. […] When complete ED50s are determined, dosing range of the peptide will be 10, 3, 1, 0.3, 0.1 of the estimated ED50, covering two log orders of range.
# The Hotplate Assay. […] Animals were placed on the plate, and the latency between the time a rat was placed on the surface and when it lifts or licks a back paw (indicative of pain sensation) was determined. […] Assays are scored as the percent of maximal possible effect (% MPE) defined as 100%, which corresponds to the rats remaining on the hotplate for 30 seconds without responding. Thus, % MPE are calculated using the following equation: % MPE=[(post-drug latency−pre-drug latency)/(cut-off pre-drug latency)]×100%. […]
# [6] = molecular target: NTR-2 (Homo sapiens, UniProt O95665); experiment: Competitive NTR binding versus radiolabeled NT[8-13]
smiles,measurement,setting,value
CC(C)C[C@H](NC(=O)[C@@H](NC(=O)[C@H](Cc1ccc(O)cc1)NC(=O)[C@@H]1CCCN1C(=O)[C@H](CCCNC(=N)N)NC(=O)[C@@H](C)CCCCCN)C(C)(C)C)C(=O)O [ABS201.2HCl] (X1-RPY[Tle]L-OH),clearance relative to rat hepatic blood flow,[1]; 15 min intravenous infusion 100 mg/kg,6.88 fold
same,half-life,"[1]; SD, rat, in vivo, iv, 100 mg/kg",29.4 min
"CC(C)C[C@H](NC(=O)[C@@H](NC(=O)[C@H](Cc1ccc(O)cc1)NC(=O)[C@@H]1CCCN1C(=O)[C@H](CCCNC(=N)N)NC(=O)[C@@H](C)CCCCCN)C(C)(C)C)C(=O)O [ABS201, hLys-Arg-Pro-Tyr-t-Leu-Leu] (X1-RPY[Tle]L-OH)",physiological activity in rat behavioral models of schizophrenia relative to ABS13,[2],about three times as physiologically active as ABS13
same,distribution between cellular and serum fractions,[3],distributes almost evenly between the cellular and serum fractions
same,metabolites detected,[3],No metabolites
same,site of absorption in the GI tract,[4],absorbed almost entirely in the intestine
same,analgesic effect relative to ABS212,[5],as much or more active than ABS212
same,half-life,"[1]; rat, in vivo, iv, 1 mg/kg",~5 min
same,half-life,"[1]; rat, in vivo, iv, 5 mg/kg",17.4 min
same,bioavailability,"[1]; rat, in vivo, po, 50 mg/kg",0.07%
same,half-life,"[1]; rat, in vivo, po, 50 mg/kg",59.4 min
same,metabolism in whole blood or plasma,5 or 30 min incubation at 37° C.,no evidence of metabolism
same,distribution into blood cellular elements,"whole blood, 5 or 30 min at 37° C.",about 33%
"CC(C)C[C@H](NC(=O)[C@@H](NC(=O)[C@H](Cc1ccc(O)cc1)NC(=O)[C@@H]1CCCN1C(=O)[C@H](CCCNC(=N)N)NC(=O)[C@H](CCCCCN)N=[N+]=[N-])C(C)(C)C)C(=O)O [ABS13, N3-L-homolysine-Arg-Pro-Tyr-tertLeu-Leu-COOH] (X5-RPY[Tle]L-OH)",NTR-1/NTR-2 selectivity,[6]; Table 12,1.9
same,improvement of NTR-2 to NTR-1 selectivity,[6]; —NH2 of ABS1 changed to —N3,~10 fold
